{"source": "patent US9611276B2", "about": "“Imidazo bicyclic iminium compounds as antitumor agents” (THE BOARD OF TRUSTEES OF THE LELAND STANFORD JUNIOR …, priority 2012, dated 2017)", "system": "Gli3", "test": "Hh ligand-dependent Gli3 processing in Shh-EGFP cells", "assay_type": "cell-based", "details": "ShhN stimulation"}
{"smiles": "CC1=C2C[C@H]3[C@@H](CC=C4C[C@@H](O)CC[C@@]43C)[C@@H]2CC[C@]12O[C@@H]1C[C@H](C)CN[C@H]1[C@H]2C", "note": "[cyclopamine, reference compound]", "values": [{"measurement": "Effect on Gli3 processing, Gli3FL/Gli3R ratio", "result": "abrogated that effect"}]}
